From BindingDB's records for 12904075
pKi: −log10 of the molar value.

By UniProt entry, the sequences of proteins in these tests, tags left out. Where a name states a change or a piece, a line headed by the entry shows the natural chain unless it says otherwise. Residues count along the entry.
UniProt P10696, 20-503 limits assumed: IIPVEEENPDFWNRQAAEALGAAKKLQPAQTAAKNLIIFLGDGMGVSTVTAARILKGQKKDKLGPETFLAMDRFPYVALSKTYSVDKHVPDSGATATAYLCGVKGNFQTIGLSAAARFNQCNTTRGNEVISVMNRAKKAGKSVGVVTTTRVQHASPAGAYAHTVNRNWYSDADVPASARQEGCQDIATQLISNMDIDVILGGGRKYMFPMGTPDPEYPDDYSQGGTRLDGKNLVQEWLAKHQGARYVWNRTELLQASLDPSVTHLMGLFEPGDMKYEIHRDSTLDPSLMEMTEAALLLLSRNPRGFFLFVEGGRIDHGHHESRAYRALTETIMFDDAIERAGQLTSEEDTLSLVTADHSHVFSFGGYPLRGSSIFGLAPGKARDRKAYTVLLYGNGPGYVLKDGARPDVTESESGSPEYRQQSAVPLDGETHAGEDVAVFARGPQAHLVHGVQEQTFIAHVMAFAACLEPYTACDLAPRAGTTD
UniProt P03772: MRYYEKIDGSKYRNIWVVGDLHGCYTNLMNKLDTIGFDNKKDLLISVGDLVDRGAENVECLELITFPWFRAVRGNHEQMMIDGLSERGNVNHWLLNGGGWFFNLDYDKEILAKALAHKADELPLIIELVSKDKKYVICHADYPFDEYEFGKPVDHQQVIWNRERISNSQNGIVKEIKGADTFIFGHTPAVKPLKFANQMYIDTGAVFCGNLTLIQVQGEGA
UniProt P08289, 18-501 limits assumed: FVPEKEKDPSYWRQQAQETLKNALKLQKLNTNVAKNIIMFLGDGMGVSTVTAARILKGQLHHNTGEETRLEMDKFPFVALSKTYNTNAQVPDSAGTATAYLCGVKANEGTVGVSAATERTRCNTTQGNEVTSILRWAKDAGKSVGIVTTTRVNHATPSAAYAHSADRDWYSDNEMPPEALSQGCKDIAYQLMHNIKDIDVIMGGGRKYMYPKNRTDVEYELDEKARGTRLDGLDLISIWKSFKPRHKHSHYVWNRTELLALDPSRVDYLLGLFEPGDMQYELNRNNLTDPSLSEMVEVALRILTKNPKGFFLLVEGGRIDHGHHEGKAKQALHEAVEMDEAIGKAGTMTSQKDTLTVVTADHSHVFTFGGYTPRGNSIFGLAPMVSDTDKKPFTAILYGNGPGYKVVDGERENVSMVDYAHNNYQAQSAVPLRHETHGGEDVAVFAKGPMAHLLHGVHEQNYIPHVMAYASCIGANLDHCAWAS

Experiments:
[1] = biological target: Alkaline phosphatase, germ cell type (Homo sapiens, UniProt P10696); assay: ASSAY_NAME: ChEMBL_157081 (CHEMBL765525) DESCRIPTION: Inhibition of Human Placental alkaline Phosphatase (PLAP)
[2] = biological target: Serine/threonine-protein phosphatase (Lambdavirus lambda, UniProt P03772); assay: ASSAY_NAME: ChEMBL_96757 (CHEMBL705380) DESCRIPTION: Inhibitory activity against Serine/Threonine Protein Phosphatase (Lambda protein phosphatase)
[3] = biological target: Alkaline phosphatase, tissue-nonspecific isozyme (Rattus norvegicus, UniProt P08289); assay: ASSAY_NAME: ChEMBL_29961 (CHEMBL640395) DESCRIPTION: Inhibitory activity against Escherichia coli Alkaline Phosphatase

COC(=O)CCCCCP(O)(O)=S
pKi [1]: 3.48 | pKi [2]: 2.96

O=C(O)CCCCCP(=O)(O)O
pKi [1]: 2.15 | pKi [2]: 3.37

O=C(O)CCCCCP(O)(O)=S
pKi [1]: 2.82 | pKi [2]: 2.82

O=C(O)c1cccc2ccc(CP(=O)(O)O)cc12
pKi [1]: 3.41 | pKi [3]: 3.52 | pKi [2]: 3.89

O=P(O)(O)Cc1ccccc1
pKi [1]: 3.24

O=C(O)c1cccc2ccc(CP(O)(O)=S)cc12
pKi [1]: 2.82 | pKi [2]: 3.77
